Laboratory results: patent US11976334B2, “Inhibitor of ATR kinase for use in a method of treating a hyper-proliferative disease” (Bayer Aktiengesellschaft, priority 2017, dated 2024)

What was measured:
PC3 xenograft (prostate) = details: mouse, in vivo
[1] = tested on: REC-1 xenograft (mantle cell lymphoma); details: mouse, in vivo
IGROV-1 = assay: Tumor cell proliferation, IGROV-1 (crystal violet); type: cell-based; details: Homo sapiens, 96 h; IGROV-1, Ovarian; 4 days; read-out: in vitro (IC50, nM), inhibition of tumor cell proliferation
[2] = tested on: A2780 xenograft (ovarian); details: mouse, in vivo
[3] = tested on: LOVO xenograft (colorectal cancer); details: mouse, in vivo

C[C@@H]1COCCN1c1cc(-c2ccnn2C)c2ccnc(-c3ccn[nH]3)c2n1 [Compound A, 2-[(3R)-3-methylmorpholin-4-yl]-4-(1-methyl-1H-pyrazol-5-yl)-8-(1H-pyrazol-5-yl)-1,7-naphthyridine]
anti-tumor efficacy upon monotherapy treatment (outcome in words) (PC3 xenograft (prostate)): stable disease
anti-tumor efficacy upon monotherapy treatment (outcome in words) [1]: complete tumor remission
IC50 (IGROV-1): 96 nM
anti-tumor efficacy upon monotherapy treatment (outcome in words) [2]: stable disease
anti-tumor efficacy upon monotherapy treatment (outcome in words) [3]: stable disease
